How the values were obtained:
human SSTR-3 = human SSTR-3 (Homo sapiens, UniProt P32745); test: Somatostatin receptor binding assay, [125I-Tyr11]somatostatin-14, membranes of transfected CHO-K1 cells; settings: read-out: Ki hSSTR-3
human SSTR-2 = human SSTR-2 (Homo sapiens, UniProt P30874); test: as above; settings: read-out: Ki hSSTR-2

Protein sequences, listed by entry. Tags and fused reporters are not part of them. Lines headed by an entry give the natural chain unless they say otherwise; changes in a name come on top.
UniProt P32745: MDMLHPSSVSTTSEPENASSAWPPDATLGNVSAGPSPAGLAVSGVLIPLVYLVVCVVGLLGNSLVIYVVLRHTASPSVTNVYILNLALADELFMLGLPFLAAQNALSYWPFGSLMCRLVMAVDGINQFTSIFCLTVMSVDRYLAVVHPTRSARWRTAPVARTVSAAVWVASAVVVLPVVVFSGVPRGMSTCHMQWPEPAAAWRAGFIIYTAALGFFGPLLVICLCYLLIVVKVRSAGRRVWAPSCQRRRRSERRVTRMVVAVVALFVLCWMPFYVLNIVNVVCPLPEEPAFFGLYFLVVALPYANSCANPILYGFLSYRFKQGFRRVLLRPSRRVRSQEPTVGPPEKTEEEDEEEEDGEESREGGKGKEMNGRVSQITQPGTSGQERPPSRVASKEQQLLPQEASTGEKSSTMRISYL
UniProt P30874: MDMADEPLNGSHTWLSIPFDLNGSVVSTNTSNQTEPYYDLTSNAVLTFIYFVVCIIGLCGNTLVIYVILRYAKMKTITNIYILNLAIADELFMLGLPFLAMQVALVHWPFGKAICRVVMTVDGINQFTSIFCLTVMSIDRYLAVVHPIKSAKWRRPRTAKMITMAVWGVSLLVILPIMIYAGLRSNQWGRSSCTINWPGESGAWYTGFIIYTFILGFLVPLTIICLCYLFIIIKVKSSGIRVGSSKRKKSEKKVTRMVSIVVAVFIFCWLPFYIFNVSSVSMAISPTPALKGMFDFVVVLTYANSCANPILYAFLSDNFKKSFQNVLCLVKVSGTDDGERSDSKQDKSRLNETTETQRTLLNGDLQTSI

Compound | Ki (human SSTR-3) | Ki (human SSTR-2)
CC[C@@H]1NC(=O)[C@H](CCCCN)NC(=O)[C@@H](Cc2c[nH]c3ccccc23)NC(=O)[C@H](Cc2ccc(O)cc2)NC(=O)[C@@H](NC(=O)[C@@H](Cc2ccccc2)NC(=O)CN2CCN(CCO)CC2)CSSC[C@@H](C(=O)N[C@H](C(N)=O)[C@@H](C)O)NC1=O [BIM-23190] | 2.15 µM | –
CC[C@@H]1NC(=O)[C@H](CCCCN)NC(=O)[C@@H](Cc2c[nH]c3ccccc23)NC(=O)[C@H](Cc2ccc(O)cc2)NC(=O)[C@@H](NC(=O)[C@@H](Cc2ccccc2)NS(=O)(=O)CCN2CCN(CCO)CC2)CSSC[C@@H](C(=O)N[C@H](C(N)=O)[C@@H](C)O)NC1=O [BIM-23197] | – | 90 pM

— patent publication US7238666B2, “Method of inhibiting fibrosis with a somatostatin agonist” (Societe de Conseils de Recherches et d'Applications …, priority 1996, dated 2007)
